Reference: patent publication US20230340373A1, “CLEANING WIPES” (Tygrus LLC, priority 2022, published 2023)

Experiment: Conductivity, EPA method 120.1
Assay type: physicochemical
Details: samples 1% by volume in water, diluted with de-ionized water; predicted results
Procedure: To further evaluate the materials prepared in Examples I and II, samples of the materials are diluted with deionized water to provide material that contains 1% by volume of the respective material in water.
In order to test for conductivity the samples are each diluted with de-ionized water for analysis. The testing is completed using a Mettler Toledo Seven Excellence Meter with a conductivity probe following EPA method 120.1.

O=S(=O)(O)O [Dilute sulfuric acid, sulfuric acid]
Conductivity: 556 mS/cm
